Laboratory results from patent US20240360082A1, “SUBSTITUTED PYRIDONE COMPOUNDS USEFUL TO TREAT ORTH[…]” (priority 2021, published 2024).
Like-named read-outs stand apart in the source and are kept apart here.

System: influenza virus (multiple flu strains)
Assay: organism not typed
Conditions: MDCK
[1] = read-out: NA Alaska H3N2, NA assay, Alaska H3N2 strain
[2] = read-out: NA CAL H1N1, NA assay, CAL H1N1 strain
[3] = read-out: NA Alaska H3N2 IC50, NA assay, Alaska H3N2 strain
[4] = read-out: NA CAL H1N1 IC50, NA assay, CAL H1N1 strain

Structure (SMILES)	IC50 [1]	IC50 [2]	IC50 [3]	IC50 [4]
CC(C)S(=O)(=O)N1CCOC(COc2ccc(-c3cc(C(N)=O)c(=O)[nH]c3C(F)(F)F)cc2)C1 (stereo not shown) [Example 191, 5-(4-((4-(isopropylsulfonyl)morpholin-2-yl)methoxy)phenyl)-2-oxo-6-(trifluoromethyl)-1,2-dihydropyridine-3-carboxamide]	100 to 1000 nM	25000 to 50000 nM	–	–
NC(=O)c1cc(-c2ccc(OCC3CN(CC(F)F)CCO3)cc2)c(C(F)(F)F)[nH]c1=O (stereo not shown) [Example 192, 5-(4-((4-(2,2-difluoroethyl)morpholin-2-yl)methoxy)phenyl)-2-oxo-6-(trifluoromethyl)-1,2-dihydropyridine-3-carboxamide]	100 to 1000 nM	10000 to 25000 nM	–	–
COCCN1CCOC(COc2ccc(-c3cc(C(N)=O)c(=O)[nH]c3C(F)(F)F)cc2)C1 (stereo not shown) [Example 193, 5-(4-((4-(2-methoxyethyl)morpholin-2-yl)methoxy)phenyl)-2-oxo-6-(trifluoromethyl)-1,2-dihydropyridine-3-carboxamide]	100 to 1000 nM	10000 to 25000 nM	–	–
NC(=O)c1cc(-c2ccc(OCC3CN(CC4CC4)CCO3)cc2)c(C(F)(F)F)[nH]c1=O (stereo not shown) [Example 194, 5-(4-((4-(cyclopropylmethyl)morpholin-2-yl)methoxy)phenyl)-2-oxo-6-(trifluoromethyl)-1,2-dihydropyridine-3-carboxamide]	100 to 1000 nM	10000 to 25000 nM	–	–
NC(=O)c1cc(-c2ccc(OCC3CNCCCO3)cc2)c(C(F)(F)F)[nH]c1=O (stereo not shown) [Example 195, 5-(4-((1,4-oxazepan-2-yl)methoxy)phenyl)-2-oxo-6-(trifluoromethyl)-1,2-dihydropyridine-3-carboxamide]	5000 to 10000 nM	–	–	–
NC(=O)c1cc(-c2ccc(OCC3CN(C4COC4)CCCO3)cc2)c(C(F)(F)F)[nH]c1=O (stereo not shown) [Example 196, 5-(4-((4-(oxetan-3-yl)-1,4-oxazepan-2-yl)methoxy)phenyl)-2-oxo-6-(trifluoromethyl)-1,2-dihydropyridine-3-carboxamide]	100 to 1000 nM	10000 to 25000 nM	–	–
NC(=O)c1cc(-c2ccc(OCC(=O)N3CCOCC3)cc2)c(C(F)(F)F)[nH]c1=O [Example 199, 5-(4-(2-morpholino-2-oxoethoxy)phenyl)-2-oxo-6-(trifluoromethyl)-1,2-dihydropyridine-3-carboxamide]	1000 to 5000 nM	25000 to 50000 nM	–	–
CCCCNC(=O)COc1ccc(-c2cc(C(N)=O)c(=O)[nH]c2C(F)(F)F)cc1 [Example 200, 5-(4-(2-(butylamino)-2-oxoethoxy)phenyl)-2-oxo-6-(trifluoromethyl)-1,2-dihydropyridine-3-carboxamide]	1000 to 5000 nM	25000 to 50000 nM	–	–
NC(=O)c1cc(-c2ccc(OCC(=O)Nc3cccnc3)cc2)c(C(F)(F)F)[nH]c1=O [Example 201, 2-oxo-5-(4-(2-oxo-2-(pyridin-3-ylamino)ethoxy)phenyl)-6-(trifluoromethyl)-1,2-dihydropyridine-3-carboxamide]	1000 to 5000 nM	10000 to 25000 nM	–	–
NC(=O)c1cc(-c2ccc(OC[C@@H]3CO[C@@H](CO)CO3)cc2)c(C(F)(F)F)[nH]c1=O [Example 204, 5-(4-(((2S,5S)-5-(hydroxymethyl)-1,4-dioxan-2-yl)methoxy)phenyl)-2-oxo-6-(trifluoromethyl)-1,2-dihydropyridine-3-carboxamide]	5000 to 10000 nM	–	–	–
NC(=O)c1cc(-c2ccc(OCC3COCC4(COC4)N3)cc2)c(C(F)(F)F)[nH]c1=O (stereo not shown) [Example 205, 5-(4-((2,8-dioxa-5-azaspiro[3.5]nonan-6-yl)methoxy)phenyl)-2-oxo-6-(trifluoromethyl)-1,2-dihydropyridine-3-carboxamide]	1000 to 5000 nM	10000 to 25000 nM	–	–
CN1C(COc2ccc(-c3cc(C(N)=O)c(=O)[nH]c3C(F)(F)F)cc2)COCC12COC2 (stereo not shown) [Example 206, 5-(4-((5-methyl-2,8-dioxa-5-azaspiro[3.5]nonan-6-yl)methoxy)phenyl)-2-oxo-6-(trifluoromethyl)-1,2-dihydropyridine-3-carboxamide]	100 to 1000 nM	5000 to 10000 nM	–	–
CN1C(COc2ccc(-c3cc(C(N)=O)c(=O)[nH]c3C(F)(F)F)cc2)COCC1(C)C (stereo not shown) [Example 207, 2-oxo-6-(trifluoromethyl)-5-(4-((4,5,5-trimethylmorpholin-3-yl)methoxy)phenyl)-1,2-dihydropyridine-3-carboxamide]	100 to 1000 nM	100 to 1000 nM	–	–
NC(=O)c1cc(-c2ccc(OCc3cncc(Br)c3)cc2)c(C(F)(F)F)[nH]c1=O [Example 212, 5-(4-((5-bromopyridin-3-yl)methoxy)phenyl)-2-oxo-6-(trifluoromethyl)-1,2-dihydropyridine-3-carboxamide]	–	–	10 to 100 nM	100 to 1000 nM
NC(=O)c1cc(-c2ccc(OCc3cncc(Cl)c3)cc2)c(C(F)(F)F)[nH]c1=O [Example 213, 5-(4-((5-chloropyridin-3-yl)methoxy)phenyl)-2-oxo-6-(trifluoromethyl)-1,2-dihydropyridine-3-carboxamide]	–	–	10 to 100 nM	100 to 1000 nM
NC(=O)c1cc(-c2ccc(OCc3ccncn3)cc2)c(C(F)(F)F)[nH]c1=O [Example 215, 2-oxo-5-(4-(pyrimidin-4-ylmethoxy)phenyl)-6-(trifluoromethyl)-1,2-dihydropyridine-3-carboxamide]	–	–	100 to 1000 nM	5000 to 10000 nM

Structure (SMILES)	IC50 [1]	IC50 [2]	IC50 [3]	IC50 [4]
NC(=O)c1cc(-c2ccc(OCc3cncc(Cl)n3)cc2)c(C(F)(F)F)[nH]c1=O [Example 216, 5-(4-((6-chloropyrazin-2-yl)methoxy)phenyl)-2-oxo-6-(trifluoromethyl)-1,2-dihydropyridine-3-carboxamide]	–	–	10 to 100 nM	100 to 1000 nM
NC(=O)c1cc(-c2ccc(OCc3ccon3)cc2)c(C(F)(F)F)[nH]c1=O [Example 223, 5-(4-(isoxazol-3-ylmethoxy)phenyl)-2-oxo-6-(trifluoromethyl)-1,2-dihydropyridine-3-carboxamide]	–	–	100 to 1000 nM	1000 to 5000 nM
Cc1cc(COc2ccc(-c3cc(C(N)=O)c(=O)[nH]c3C(F)(F)F)cc2)no1 [Example 224, 5-(4-((5-methylisoxazol-3-yl)methoxy)phenyl)-2-oxo-6-(trifluoromethyl)-1,2-dihydropyridine-3-carboxamide]	–	–	100 to 1000 nM	5000 to 10000 nM
NC(=O)c1cc(-c2ccc(OCC3CCO3)cc2)c(C(F)(F)F)[nH]c1=O (stereo not shown) [Example 225, 5-(4-(oxetan-2-ylmethoxy)phenyl)-2-oxo-6-(trifluoromethyl)-1,2-dihydropyridine-3-carboxamide]	–	–	100 to 1000 nM	1000 to 5000 nM
NC(=O)c1cc(-c2ccc(OCC3(F)COC3)cc2)c(C(F)(F)F)[nH]c1=O [Example 226, 5-(4-((3-fluorooxetan-3-yl)methoxy)phenyl)-2-oxo-6-(trifluoromethyl)-1,2-dihydropyridine-3-carboxamide]	–	–	100 to 1000 nM	1000 to 5000 nM
CC1(COc2ccc(-c3cc(C(N)=O)c(=O)[nH]c3C(F)(F)F)cc2)COC1 [Example 227]	–	–	100 to 1000 nM	1000 to 5000 nM
CCC1(COc2ccc(-c3cc(C(N)=O)c(=O)[nH]c3C(F)(F)F)cc2)COC1 [Example 228]	–	–	100 to 1000 nM	1000 to 5000 nM
N#CCC1(COc2ccc(-c3cc(C(N)=O)c(=O)[nH]c3C(F)(F)F)cc2)COC1 [Example 229, 5-(4-((3-(cyanomethyl)oxetan-3-yl)methoxy)phenyl)-2-oxo-6-(trifluoromethyl)-1,2-dihydropyridine-3-carboxamide]	–	–	1000 to 5000 nM	5000 to 10000 nM
NC(=O)c1cc(-c2ccc(OC3CC4(COC4)C3)cc2)c(C(F)(F)F)[nH]c1=O [Example 230, 5-(4-((2-oxaspiro[3.3]heptan-6-yl)oxy)phenyl)-2-oxo-6-(trifluoromethyl)-1,2-dihydropyridine-3-carboxamide]	–	–	1000 to 5000 nM	5000 to 10000 nM
NC(=O)c1cc(-c2ccc(OCC3CCOC3)cc2)c(C(F)(F)F)[nH]c1=O (stereo not shown) [Example 231, 2-oxo-5-(4-((tetrahydrofuran-3-yl)methoxy)phenyl)-6-(trifluoromethyl)-1,2-dihydropyridine-3-carboxamide]	–	–	100 to 1000 nM	1000 to 5000 nM
NC(=O)c1cc(-c2ccc(OCC3CCCO3)cc2)c(C(F)(F)F)[nH]c1=O (stereo not shown) [Example 232, 2-oxo-5-(4-((tetrahydrofuran-2-yl)methoxy)phenyl)-6-(trifluoromethyl)-1,2-dihydropyridine-3-carboxamide]	–	–	100 to 1000 nM	100 to 1000 nM
NC(=O)c1cc(-c2ccc(OCC3CCCCO3)cc2)c(C(F)(F)F)[nH]c1=O (stereo not shown) [Example 236, 2-oxo-5-(4-((tetrahydro-2H-pyran-2-yl)methoxy)phenyl)-6-(trifluoromethyl)-1,2-dihydropyridine-3-carboxamide]	–	–	100 to 1000 nM	100 to 1000 nM
NC(=O)c1cc(-c2ccc(OCC3COCCO3)c(F)c2)c(C(F)(F)F)[nH]c1=O (stereo not shown) [Example 239, 5-(4-((1,4-dioxan-2-yl)methoxy)-3-fluorophenyl)-2-oxo-6-(trifluoromethyl)-1,2-dihydropyridine-3-carboxamide]	–	–	100 to 1000 nM	1000 to 5000 nM
NC(=O)c1cc(-c2ccc(OCC3COCCO3)c(Cl)c2)c(C(F)(F)F)[nH]c1=O (stereo not shown) [Example 240, 5-(4-((1,4-dioxan-2-yl)methoxy)-3-chlorophenyl)-2-oxo-6-(trifluoromethyl)-1,2-dihydropyridine-3-carboxamide]	–	–	100 to 1000 nM	5000 to 10000 nM
N#Cc1cc(-c2cc(C(N)=O)c(=O)[nH]c2C(F)(F)F)ccc1OCC1COCCO1 (stereo not shown) [Example 241, 5-(4-((1,4-dioxan-2-yl)methoxy)-3-cyanophenyl)-2-oxo-6-(trifluoromethyl)-1,2-dihydropyridine-3-carboxamide]	–	–	1000 to 5000 nM	–
Cc1cc(-c2cc(C(N)=O)c(=O)[nH]c2C(F)(F)F)ccc1OCC1COCCO1 (stereo not shown) [Example 242, 5-(4-((1,4-dioxan-2-yl)methoxy)-3-methylphenyl)-2-oxo-6-(trifluoromethyl)-1,2-dihydropyridine-3-carboxamide]	–	–	100 to 1000 nM	1000 to 5000 nM
